What was measured:
Assay in all cases: Kinase profiling panel
[1] = biological target: LRRK2 wild-type (Homo sapiens, UniProt Q5S007); type: biochemical; conditions: read-out: percentage of kinase activity compared with control
[2] = biological target: CHK1 (Homo sapiens, UniProt O14757); type: biochemical
[3] = system: VEGFR; type: biochemical
[4] = biological target: LRRK2[G2019S] (Homo sapiens, UniProt Q5S007, G2019S); type: biochemical; conditions: read-out: percentage of kinase activity compared with control
[5] = biological target: ROCK2 (Rattus norvegicus, UniProt Q62868); type: biochemical; conditions: read-out: percentage of kinase activity compared with control
[6] = biological target: MKK1 (Homo sapiens, UniProt Q02750); type: biochemical; conditions: read-out: percentage of kinase activity compared with control
[7] = biological target: JNK1 (Homo sapiens, UniProt P45983); type: biochemical; conditions: 10 μM inhibitor
[8] = biological target: NK2 (Homo sapiens, UniProt P45984); type: biochemical; conditions: 10 μM inhibitor
[9] = biological target: p38α MAPK (Homo sapiens, UniProt Q16539); type: biochemical; conditions: 10 μM inhibitor
[10] = biological target: p38β MAPK (Homo sapiens, UniProt Q15759); type: biochemical; conditions: read-out: percentage of kinase activity compared with control
[11] = biological target: p38δ MAPK (Homo sapiens, UniProt O15264); type: biochemical; conditions: read-out: percentage of kinase activity compared with control
[12] = biological target: ERK8 (Homo sapiens, UniProt Q8TD08); type: biochemical; conditions: read-out: percentage of kinase activity compared with control
[13] = biological target: RSK1 (Homo sapiens, UniProt Q15418); type: biochemical; conditions: read-out: percentage of kinase activity compared with control
[14] = biological target: RSK2 (Homo sapiens, UniProt P51812); type: biochemical; conditions: read-out: percentage of kinase activity compared with control
[15] = biological target: PDK1 (Homo sapiens, UniProt O15530); type: biochemical; conditions: read-out: percentage of kinase activity compared with control
[16] = biological target: PKBβ (Homo sapiens, UniProt P31751); type: biochemical; conditions: read-out: percentage of kinase activity compared with control
[17] = biological target: SGK1 (Homo sapiens, UniProt O00141); type: biochemical; conditions: read-out: percentage of kinase activity compared with control
[18] = biological target: S6K1 (Homo sapiens, UniProt P23443); type: biochemical; conditions: read-out: percentage of kinase activity compared with control
[19] = biological target: PKA (Homo sapiens, UniProt P17612); type: biochemical; conditions: read-out: percentage of kinase activity compared with control
[20] = biological target: PRK2 (Homo sapiens, UniProt Q16513); type: biochemical; conditions: read-out: percentage of kinase activity compared with control
[21] = biological target: PKCα (Homo sapiens, UniProt P17252); type: biochemical; conditions: read-out: percentage of kinase activity compared with control
[22] = biological target: PKCζ (Homo sapiens, UniProt Q05513); type: biochemical; conditions: read-out: percentage of kinase activity compared with control
[23] = biological target: PKD1 (Homo sapiens, UniProt Q15139); type: biochemical; conditions: read-out: percentage of kinase activity compared with control
[24] = biological target: MSK1 (Homo sapiens, UniProt O75582); type: biochemical; conditions: read-out: percentage of kinase activity compared with control
[25] = biological target: MNK1 (Homo sapiens, UniProt Q9BUB5); type: biochemical; conditions: read-out: percentage of kinase activity compared with control
[26] = biological target: MNK2 (Homo sapiens, UniProt Q9HBH9); type: biochemical; conditions: read-out: percentage of kinase activity compared with control
[27] = biological target: PRAK (Homo sapiens, UniProt Q8IW41); type: biochemical; conditions: read-out: percentage of kinase activity compared with control
[28] = biological target: CaMKKβ (Homo sapiens, UniProt Q96RR4); type: biochemical; conditions: read-out: percentage of kinase activity compared with control
[29] = biological target: CaMK1 (Homo sapiens, UniProt Q14012); type: biochemical; conditions: read-out: percentage of kinase activity compared with control
[30] = biological target: SmMLCK (Homo sapiens, UniProt Q15746); type: biochemical; conditions: read-out: percentage of kinase activity compared with control
[31] = biological target: PHK (Homo sapiens, UniProt Q16816); type: biochemical; conditions: read-out: percentage of kinase activity compared with control
[32] = biological target: CHK2 (Homo sapiens, UniProt O96017); type: biochemical; conditions: read-out: percentage of kinase activity compared with control
[33] = biological target: GSK3β (Homo sapiens, UniProt P49841); type: biochemical; conditions: read-out: percentage of kinase activity compared with control
[34] = biological target: Aurora B kinase (Homo sapiens, UniProt Q96GD4); type: biochemical; conditions: read-out: percentage of kinase activity compared with control
[35] = system: AMPK; type: biochemical; conditions: 10 μM inhibitor
[36] = biological target: BRSK2 (Homo sapiens, UniProt Q8IWQ3); type: biochemical; conditions: read-out: percentage of kinase activity compared with control
[37] = biological target: MELK (Homo sapiens, UniProt Q14680); type: biochemical; conditions: read-out: percentage of kinase activity compared with control
[38] = biological target: CK1 (Homo sapiens, UniProt P48730); type: biochemical; conditions: read-out: percentage of kinase activity compared with control
[39] = biological target: DYRK2 (Homo sapiens, UniProt Q92630); type: biochemical; conditions: read-out: percentage of kinase activity compared with control
[40] = biological target: DYRK3 (Homo sapiens, UniProt O43781); type: biochemical; conditions: read-out: percentage of kinase activity compared with control
[41] = biological target: IKKβ (Homo sapiens, UniProt O14920); type: biochemical; conditions: read-out: percentage of kinase activity compared with control
[42] = biological target: PIM1 (Homo sapiens, UniProt P11309); type: biochemical; conditions: read-out: percentage of kinase activity compared with control
[43] = biological target: PIM2 (Homo sapiens, UniProt Q9P1W9); type: biochemical; conditions: read-out: percentage of kinase activity compared with control
[44] = biological target: PIM3 (Homo sapiens, UniProt Q86V86); type: biochemical; conditions: read-out: percentage of kinase activity compared with control
[45] = biological target: SRPK1 (Homo sapiens, UniProt Q96SB4); type: biochemical; conditions: read-out: percentage of kinase activity compared with control
[46] = biological target: MST2 (Homo sapiens, UniProt Q13188); type: biochemical; conditions: read-out: percentage of kinase activity compared with control
[47] = biological target: PAK4 (Homo sapiens, UniProt O96013); type: biochemical; conditions: read-out: percentage of kinase activity compared with control
[48] = biological target: PAK5 (Homo sapiens, UniProt Q9P286); type: biochemical; conditions: read-out: percentage of kinase activity compared with control
[49] = biological target: MST4 (Homo sapiens, UniProt Q9P289); type: biochemical; conditions: read-out: percentage of kinase activity compared with control
[50] = biological target: TBK1 (Homo sapiens, UniProt Q9UHD2); type: biochemical; conditions: read-out: percentage of kinase activity compared with control
[51] = biological target: IKKε (Homo sapiens, UniProt Q14164); type: biochemical; conditions: read-out: percentage of kinase activity compared with control
[52] = biological target: GCK (Homo sapiens, UniProt Q12851); type: biochemical; conditions: read-out: percentage of kinase activity compared with control
[53] = biological target: IRAK4 (Homo sapiens, UniProt Q9NWZ3); type: biochemical; conditions: 10 μM inhibitor
[54] = biological target: NUAK1 (Homo sapiens, UniProt O60285); type: biochemical; conditions: 10 μM inhibitor
[55] = biological target: MLK1 (Homo sapiens, UniProt P80192); type: biochemical; conditions: read-out: percentage of kinase activity compared with control
[56] = biological target: MINK1 (Homo sapiens, UniProt Q8N4C8); type: biochemical; conditions: read-out: percentage of kinase activity compared with control
[57] = biological target: LKB1 (Homo sapiens, UniProt Q15831); type: biochemical; conditions: read-out: percentage of kinase activity compared with control
[58] = biological target: TTK (Homo sapiens, UniProt P33981); type: biochemical; conditions: read-out: percentage of kinase activity compared with control
[59] = biological target: IRR (Homo sapiens, UniProt P14616); type: biochemical; conditions: read-out: percentage of kinase activity compared with control
[60] = biological target: SYK (Homo sapiens, UniProt P43405); type: biochemical
[61] = biological target: YES1 (Homo sapiens, UniProt P07947); type: biochemical; conditions: read-out: percentage of kinase activity compared with control
[62] = biological target: IGF-1R (Homo sapiens, UniProt P08069); type: biochemical; conditions: read-out: percentage of kinase activity compared with control
[63] = biological target: BTK (Homo sapiens, UniProt Q06187); type: biochemical; conditions: 10 μM inhibitor
[64] = biological target: IR-HIS (Homo sapiens, UniProt P06213); type: biochemical; conditions: read-out: percentage of kinase activity compared with control
[65] = biological target: EPH-B3 (Homo sapiens, UniProt P54753); type: biochemical; conditions: read-out: percentage of kinase activity compared with control
[66] = biological target: Src (Homo sapiens, UniProt P12931); conditions: read-out: percentage of kinase activity compared with control

CCN(CC)CCNC(=O)c1c(C)[nH]c(/C=C2\C(=O)Nc3ccc(F)cc32)c1C [Sunitinib, sunitinib]
remaining activity at 1 µM [1]: 9%
percentage of kinase activity compared with control ([2]; 1 μM inhibitor): 33 ± 3%
percentage of kinase activity compared with control ([3]; 0.1 μM inhibitor): 33 ± 0%
percentage of kinase activity compared with control ([3]; 1 μM inhibitor): 9 ± 0%

O=c1[nH]ccc2c(S(=O)(=O)N3CCCNCC3)cccc12 [HA-1100, hydroxyfasudil]
remaining activity at 10 µM [1]: 72 ± 11%
remaining activity at 10 µM [4]: 26 ± 1%
remaining activity at 10 µM [5]: 7 ± 2%
remaining activity at 10 µM [6]: 63 ± 3%
percentage of kinase activity compared with control [7]: 105 ± 9%
percentage of kinase activity compared with control [8]: 90 ± 5%
percentage of kinase activity compared with control [9]: 98 ± 1%
remaining activity at 10 µM [10]: 90 ± 6%
remaining activity at 10 µM [11]: 100 ± 4%
remaining activity at 10 µM [12]: 76 ± 1%
remaining activity at 10 µM [13]: 11 ± 15%
remaining activity at 10 µM [14]: 41 ± 6%
remaining activity at 10 µM [15]: 112 ± 4%
remaining activity at 10 µM [16]: 100 ± 3%
remaining activity at 10 µM [17]: 55 ± 13%
remaining activity at 10 µM [18]: 11 ± 1%
remaining activity at 10 µM [19]: 89 ± 10%
remaining activity at 10 µM [20]: 12%
remaining activity at 10 µM [21]: 64 ± 5%
remaining activity at 10 µM [22]: 94 ± 8%
remaining activity at 10 µM [23]: 60 ± 3%
remaining activity at 10 µM [24]: 17%
remaining activity at 10 µM [25]: 76 ± 8%
remaining activity at 10 µM [26]: 77 ± 4%
remaining activity at 10 µM [27]: 88 ± 16%
remaining activity at 10 µM [28]: 93 ± 3%
remaining activity at 10 µM [29]: 108 ± 14%
remaining activity at 10 µM [30]: 66 ± 3%
remaining activity at 10 µM [31]: 89 ± 4%
percentage of kinase activity compared with control ([2]; 10 μM inhibitor): 87 ± 1%
remaining activity at 10 µM [32]: 89 ± 13%
remaining activity at 10 µM [33]: 91 ± 11%
remaining activity at 10 µM [34]: 59 ± 1%
percentage of kinase activity compared with control [35]: 72 ± 2%
remaining activity at 10 µM [36]: 65 ± 3%
remaining activity at 10 µM [37]: 76 ± 2%
remaining activity at 10 µM [38]: 100%
remaining activity at 10 µM [39]: 89 ± 1%
remaining activity at 10 µM [40]: 99 ± 2%
remaining activity at 10 µM [41]: 86 ± 6%
remaining activity at 10 µM [42]: 90 ± 14%
remaining activity at 10 µM [43]: 104 ± 1%
remaining activity at 10 µM [44]: 75 ± 1%
remaining activity at 10 µM [45]: 90 ± 12%
remaining activity at 10 µM [46]: 44 ± 4%
remaining activity at 10 µM [47]: 104 ± 4%
remaining activity at 10 µM [48]: 113 ± 7%
remaining activity at 10 µM [49]: 82 ± 2%
remaining activity at 10 µM [50]: 98 ± 5%
remaining activity at 10 µM [51]: 99 ± 2%
remaining activity at 10 µM [52]: 73 ± 7%
percentage of kinase activity compared with control [53]: 87 ± 4%
percentage of kinase activity compared with control [54]: 36 ± 11%
remaining activity at 10 µM [55]: 75 ± 16%
remaining activity at 10 µM [56]: 68 ± 21%
remaining activity at 10 µM [57]: 50%
remaining activity at 10 µM [58]: 82 ± 2%
remaining activity at 10 µM [59]: 89 ± 1%
percentage of kinase activity compared with control [60]: 112 ± 11%
remaining activity at 10 µM [61]: 111 ± 4%
remaining activity at 10 µM [62]: 91 ± 9%
percentage of kinase activity compared with control ([3]; 10 μM inhibitor): 115 ± 1%
percentage of kinase activity compared with control [63]: 108 ± 20%
remaining activity at 10 µM [64]: 100 ± 4%
remaining activity at 10 µM [65]: 111 ± 2%
remaining activity at 10 µM [66]: 111 ± 2%

Source: publication PMC3759966 (The Biochemical journal, 2009)
